Experimental data: patent US4587233A, “Use of Arg-Phe-amide derivatives” (Board of Trustees of the Leland Stanford Junior University, priority 1983, dated 1986)

Test system: Blood Pressure of Anesthetized Rats
Test: Blood pressure bioassay in urethane-anesthetized rats, peptides injected intravenously
Type: in vivo, male Sprague-Dawley rats
Settings: anesthetized rat
Protocol: Bioassays were conducted on male Sprague-Dawley rats, weighing 250-450 g, and anesthetized by an intraperitoneal injection of a 25 percent urethane solution (1.25 g/kg). The left femoral artery was cannulated with PE 50 polyethylene tubing for monitoring of blood pressure with a pressure transducer RP-1500 (Narco Biosystems). Injections of peptides or drugs were made via a PE 10 tubing into the left femoral vein. Respiration was measured by an impedance method by which the respiratory movements of the chest are registered. The method gives indirect information on respiration amplitude. Heart and respiration frequency were obtained by using biotachometer couplers which measure mean frequencies. Body temperature was measured in the rectum with a thermistor (Yellow Springs Instruments) and maintained between 36.5° and 37.5° C. Peptides or drugs were dissolved in sterile H2 O and the volumes injected intravenously were usually 0.1 ml and never exceeded 0.2 ml.

CSCC[C@H](NC(=O)[C@@H](N)Cc1ccccc1)C(=O)N[C@@H](CCCN=C(N)N)C(=O)N[C@@H](Cc1ccccc1)C(N)=O [FMRF--NH2, Phe-Met-Arg-Phe-NH2]
Time for which respiration movements of the thorax decreased or stopped (128 nmol/kg i.v.): 1 to 5 s
Arrhythmia after injection (at higher doses, i.v.): often arrhythmia developed immediately after injection causing a short-lasting drop in heart rate
